We go through 1 molecule from PMC5537869, “Role of Zucchini and Its Distinctive Components in the Modulation of Degenerative Processes: Genotoxicity, Anti-Genotoxicity, Cytotoxicity and Apoptotic Effects” (Nutrients, 2017).

The series relates to HL60 cells. The experiment in a line: Cytotoxicity assay, trypan blue exclusion. How it is done: Therefore, all the cells that exclude the dye are viable. Non-viable cells stained purple-violet, whereas viable ones remained unstained. Trypan blue was added to cell cultures at a 1:1 ratio, and 20 μL of cell suspension was loaded into a Neubauer chamber. The cells were counted under an inverted microscope at 100× magnification. […] Curves are expressed as survival percentage with respect to controls growing at 72 h. All data represent the average of at least three independent experiments.

Turning to `CC1=C(/C=C/C(C)=C/C=C/C(C)=C/C=C/C=C(C)/C=C/C=C(C)/C=C/C2=C(C)CCCC2(C)C)C(C)(C)CCC1` [β-carotene], the cytotoxicity result (HL60, 0.5 μM) was “did not show cytotoxicity”. For the same molecule, under “HL60, 72 h, trypan blue exclusion, at the tested concentrations”, the “cytotoxic effect (tumoral viability)” value was “slight cytotoxic activities”.
